# Measurements: US9278960B2, “Quinoline carboxamide and quinoline carbonitrile derivatives as mGluR2-negative allosteric modulators, compositions, and their use” (Merck Sharp & Dohme Corp., priority 2011, dated 2016)
# Chains of the proteins cited; added tags and fusions are not shown. Residues count along the entry.
# UniProt Q14416, 19-872: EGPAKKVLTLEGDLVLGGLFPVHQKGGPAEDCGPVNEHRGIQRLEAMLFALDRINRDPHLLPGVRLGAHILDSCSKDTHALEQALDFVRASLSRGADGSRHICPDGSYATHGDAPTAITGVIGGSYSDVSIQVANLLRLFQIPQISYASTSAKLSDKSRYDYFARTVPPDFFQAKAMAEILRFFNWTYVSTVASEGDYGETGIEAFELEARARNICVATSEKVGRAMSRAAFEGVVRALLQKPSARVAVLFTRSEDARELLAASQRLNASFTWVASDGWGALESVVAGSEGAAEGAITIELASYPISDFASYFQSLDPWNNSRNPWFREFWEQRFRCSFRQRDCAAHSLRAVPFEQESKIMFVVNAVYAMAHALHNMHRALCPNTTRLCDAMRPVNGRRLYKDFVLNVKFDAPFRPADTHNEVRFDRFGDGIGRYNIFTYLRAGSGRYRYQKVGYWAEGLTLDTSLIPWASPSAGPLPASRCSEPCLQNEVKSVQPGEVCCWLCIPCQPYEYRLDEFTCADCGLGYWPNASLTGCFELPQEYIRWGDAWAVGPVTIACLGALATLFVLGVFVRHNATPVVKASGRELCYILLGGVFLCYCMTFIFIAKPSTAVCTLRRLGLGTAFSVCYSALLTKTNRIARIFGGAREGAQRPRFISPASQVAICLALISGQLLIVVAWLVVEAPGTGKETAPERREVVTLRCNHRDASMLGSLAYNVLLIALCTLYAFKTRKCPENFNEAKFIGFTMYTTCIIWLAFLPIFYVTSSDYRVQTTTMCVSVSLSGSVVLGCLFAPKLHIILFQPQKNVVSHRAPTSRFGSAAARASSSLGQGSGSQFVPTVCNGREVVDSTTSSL
# Target: human mGluR2 (Homo sapiens (Human), UniProt Q14416)
# Assay: FLIPR Ca2+ mobilization antagonist assay in CHO dhfr- cells expressing recombinant human mGluR2 and Gα16
# Format: cell-based
# Conditions: antagonist response after addition of 2,500 nM glutamate, Fluo-4 AM, FLIPR384
row,IC50,Compound
1,112 nM,"CC[C@](O)(c1cn(Cc2ccc3c(-c4cccnc4F)cc(C(N)=O)nc3c2)nn1)C(F)(F)F [Example 3-19, 4-(2-fluoropyridin-3-yl)-7-({4-[(1S)-1-hydroxy-1-(trifluoromethyl)propyl]-1H-1,2,3-triazol-1-yl}methyl)quinoline-2-carboxamide]"
2,73 nM,"CC(C)CC1COCCN1Cc1ccc2c(-c3cnn(C)c3)cc(C(N)=O)nc2c1 (stereo not shown) [Example 4-64, 7-{[3-(2-methylpropyl)morph-olin-4-yl]methyl}-4-(1-methyl-1H-pyrazol-4-yl)quinoline-2-carboxamide]"
3,8 nM,"Cc1nn(C)cc1-c1cc(C(N)=O)nc2cc(CN3C[C@@H](C)O[C@@H](C(F)(F)F)C3)ccc12 [Example 4-135, 4-(1,3-dimethyl-1H-pyrazol-4-yl)-7-{[(2R,6R)-2-methyl-6-(trifluoromethyl)morpholin-4-yl]methyl}quinoline-2-carboxamide]"
4,11 nM,"NC(=O)c1cc(-c2cnn(C(F)F)c2)c2ccc(CN3CCOC(C(F)(F)F)C3)cc2n1 (stereo not shown) [Example 4-84, 4-[1-(difluoromethyl)-1H-pyrazol-4-yl]-7-{[2-(trifluoromethyl)morpholin-4-yl]methyl}quinoline-2-carboxamide]"
5,28 nM,"Cn1cc(-c2cc(C(N)=O)nc3cc(Cc4cccc(C(F)(F)F)n4)ccc23)cn1 [Example 6-23, 4-(1-methyl-1H-pyrazol-4-yl)-7-{[6-(trifluoromethyl)pyridin-2-yl]methyl} quinoline-2-carboxamide]"
6,14 nM,"Cn1cc(-c2cc(C(N)=O)nc3c(F)c(CN4CCO[C@@H](C(F)(F)F)C4)ccc23)cn1 [Example 7-20-A, (R)-8-Fluoro-4-(1-methyl-1H-pyrazol-4-yl)-7-((2-(trifluoromethyl)morpholino)methyl)quinoline-2-carboxamide]"
7,33 nM,"COc1ncc(-c2cc(C(N)=O)nc3cc(CN4CCOC(C(F)(F)F)C4)ccc23)s1 (stereo not shown) [Example 4-55, 4-(2-methoxy-1,3-thiazol-5-yl)-7-{[2-(trifluoromethyl)morpholin-4-yl]methyl}quinoline-2-carboxamide]"
8,25 nM,"Cn1cc(-c2cc(C(N)=O)nc3cc(CN4CCO[C@H](C(F)(F)F)C4)ccc23)cn1 [Example 4-53, 4-(1-methyl-1H-pyrazol-4-yl)-7-{[(2S)-2-(trifluoromethyl)morpholin-4-yl]methyl}quinoline-2-carboxamide]"
9,217 nM,"COc1ccc(-c2cc(C(N)=O)nc3cc(C)ccc23)cc1 [Example 1-26, 4-(4-methoxyphenyl)-7-methylquinoline-2-carboxamide]"
10,678 nM,"Cn1cc(-c2cc(C(N)=O)nc3ccccc23)cn1 [Example 1-12, 4-(1-methyl-1H-pyrazol-4-yl)quinoline-2-carboxamide]"
11,20 nM,"NC(=O)c1cc(-c2ccc(F)cc2)c2ccc(Cc3cnc(C4CC4)nc3)c(F)c2n1 [Example 7-25, 7-[(2-cyclopropylpyrimidin-5-yl)methyl]-8-fluoro-4-(4-fluorophenyl)quinoline-2-carboxamide]"
12,14 nM,"NC(=O)c1cc(-c2ccc(F)cc2)c2ccc(CN3CCNC(C(F)(F)F)C3)cc2n1 (stereo not shown) [Example 4-87, 4-(4-fluorophenyl)-7-{[3-(trifluoromethyl)piperazin-1-yl]methyl}quinoline-2-carboxamide]"
13,192 nM,"NC(=O)c1cc(-c2ccc(F)cc2)c2ccc(Cn3cc(C(O)C4CCCC4)cn3)cc2n1 (stereo not shown) [Example 3-23, 7-({4-[cyclopentyl(hydroxy)methyl]-1H-pyrazol-1-yl}methyl)-4-(4-fluorophenyl)quin-oline-2-carboxamide]"
14,28 nM,"Cn1cc(-c2cc(C(N)=O)nc3c(F)c(Cc4ccc(C(F)(F)F)nc4)ccc23)cn1 [Example 7-31, 8-fluoro-4-(1-methyl-1H-pyrazol-4-yl)-7-{[6-(trifluoromethyl)pyridin-3-yl]methyl}quinoline-2-carboxamide]"
15,161 nM,"CC(C)(C)C1CN(Cc2ccc3c(-c4ccc(F)cc4)cc(C(N)=O)nc3c2)CCN1 (stereo not shown) [Example 4-108, 7-[(3-tert-butylpiperazin-1-yl)methyl]-4-(4-fluorophenyl)quino-line-2-carboxamide]"
16,9 nM,"C[C@H]1CNC(C(F)(F)F)CN1Cc1ccc2c(-c3ccc(F)cc3)cc(C(N)=O)nc2c1 (single isomer, unassigned) [Example 4-22-A, 4-(4-Fluorophenyl)-7-(((2S)-2-methyl-5(R or S)-(trifluoromethyl)piperazin-1-yl)methyl)quinoline-2-carboxamide]"
17,7 nM,"CC1CC=C(c2cc(C(N)=O)nc3cc(CN4C(=O)CCC4=O)ccc23)CC1 (stereo not shown) [Example 2-27, 7-[(2,5-dioxopyrrolidin-1-yl)methyl]-4-(4-methylcyclohex-1-en-1-yl)quinoline-2-carboxamide]"
18,136 nM,"NC(=O)c1cc(-c2ccc(F)cc2)c2ccc(CN3CCNCC3)cc2n1 [Example 4-45, 4-(4-fluorophenyl)-7-(piperazin-1-ylmethyl)quinoline-2-carboxamide]"
19,27 nM,"CC1(C)CC(=O)N(Cc2ccc3c(-c4ccc(F)cc4)cc(C(N)=O)nc3c2)C1=O [Example 2-20, 7-[(3,3-dimethyl-2,5-dioxopyrrolidin-1-yl)methyl]-4-(4-fluorophenyl)quinoline-2-carboxamide]"

row,IC50,Compound
1,27 nM,"NC(=O)c1cc(-c2ccc(F)cc2)c2ccc(Cn3c(S(=O)(=O)O)nc4ccccc43)cc2n1 [Example 3-35, 1-{[2-carbamoyl-4-(4-fluorophenyl)quin-olin-7-yl]methyl}-1H-benzimidazole-2-sulfonic acid]"
2,8 nM,"CCC(O)(c1cn(Cc2ccc3c(-c4ccc(OC)cc4F)cc(C(N)=O)nc3c2F)cn1)C(F)(F)F (stereo not shown) [Example 7-29, 8-fluoro-4-(2-fluoro-4-methoxyphenyl)-7-({4-[1-hydroxy-1-(trifluoromethyl)propyl]-1H-imidazol-1-yl}methyl)quinoline-2-carboxamide]"
3,667 nM,"Cc1c(-c2cc(C(N)=O)nc3ccccc23)cnn1-c1ccccc1 [Example 1-14, 4-(5-methyl-1-phenyl-1H-pyrazol-4-yl)quinoline-2-carboxamide]"
4,29 nM,"NC(=O)c1cc(C2CCCCC2)c2ccc(CN3C(=O)CCC3=O)cc2n1 [Example 2-26, 4-cyclohexyl-7-[(2,5-dioxopyrrolidin-1-yl)methyl]quinoline-2-carboxamide]"
5,74 nM,"CC[C@@](O)(c1cn(Cc2ccc3c(-c4ccc(F)nc4)cc(C(N)=O)nc3c2)nn1)C(F)(F)F [Example 3-17, 4-(6-fluoropyridin-3-yl)-7-({4-[(1R)-1-hydroxy-1-(trifluoromethyl)propyl]-1H-1,2,3-triazol-1-yl}methyl)quinoline-2-carboxamide]"
6,81 nM,"NC(=O)c1cc(-c2ccc(F)cc2)c2ccc(Cn3c(C4CCC4)nc4ccccc43)cc2n1 [Example 3-40, 7-[(2-cyclobutyl-1H-benzimidazol-1-yl)methyl]-4-(4-fluorophenyl)quin-oline-2-carboxamide]"
7,31 nM,"COc1cncc(Cc2ccc3c(-c4ccc(F)cc4)cc(C(N)=O)nc3c2)c1 [Example 6-12, 4-(4-fluorophenyl)-7-[(5-methoxypyridin-3-yl)methyl] quinoline-2-carboxamide]"
8,41 nM,"COc1ncc(Cc2ccc3c(-c4cnn(C)c4)cc(C(N)=O)nc3c2)cn1 [Example 6-19, 7-[(2-methoxypyrimidin-5-yl)methyl]-4-(1-methyl-1H-pyrazol-4-yl)quinoline-2-carboxamide]"
9,25 nM,"Cc1cc(Cc2ccc3c(-c4cnn(C)c4)cc(C(N)=O)nc3c2)cc(C)n1 [Example 6-24, 7-[(2,6-dimethylpyridin-4-yl)methyl]-4-(1-methyl-1H-pyrazol-4-yl)quinoline-2-carboxamide]"
10,50 nM,"NC(=O)c1cc(-c2ccc(F)cc2)c2ccc(CN3CCNC(C(F)F)C3)cc2n1 (stereo not shown) [Example 4-106, 7-{[3-(difluoromethyl)piperazin-1-yl]methyl}-4-(4-fluorophenyl)quino-line-2-carboxamide]"
11,13 nM,"N#Cc1ccc(Cc2ccc3c(-c4ccc(F)cc4)cc(C(N)=O)nc3c2)cn1 [Example 6-6, 7-[(6-cyanopyridin-3-yl)methyl]-4-(4-fluorophenyl) quinoline-2-carboxamide]"
12,78 nM,"NC(=O)c1cc(-c2ccc(F)cc2)c2ccc(CN3CCC[C@H]3C(N)=O)cc2n1 [Example 4-24, 7-{[(2S)-2-carbamoylpyrrolidin-1-yl]methyl}-4-(4-fluorophenyl)quino-line-2-carboxamide]"
13,> 1000 nM,"Cc1nsc(-c2cc(C(N)=O)nc3cc(CN4C[C@@H](C)O[C@@H](C(F)(F)F)C4)ccc23)n1 [Example 4-129, 4-(3-methyl-1,2,4-thiadiazol-5-yl)-7-{[(2R,6R)-2-methyl-6-(trifluoromethyl)morpholin-4-yl]methyl}quinoline-2-carboxamide]"
14,55 nM,"CC1CN(Cc2ccc3c(-c4ccc(F)cc4)cc(C(N)=O)nc3c2)CC(C)O1 (stereo not shown) [Example 4-37, 7-[(2,6-dimethylmorpholin-4-yl)methyl]-4-(4-fluorophenyl)quino-line-2-carboxamide]"
15,21 nM,"Cn1cc(-c2cc(C(N)=O)nc3c(F)c(CN4CCO[C@H](C(F)(F)F)C4)ccc23)cn1 [Example 7-20-B, (S)-8-Fluoro-4-(1-methyl-1H-pyrazol-4-yl)-7-((2-(trifluoromethyl)morpholino)methyl)quinoline-2-carboxamide]"
16,9 nM,"NC(=O)c1cc(-c2cnn(CF)c2)c2ccc(CN3CCO[C@@H](C(F)(F)F)C3)cc2n1 [Example 4-86, 4-[1-(fluoromethyl)-1H-pyrazol-4-yl]-7-{[(2R)-2-(trifluoromethyl)morpholin-4-yl]methyl}quinoline-2-carboxamide]"
17,74 nM,"NC(=O)c1cc(-c2ccc(F)cc2)c2c(F)cc(CN3C(=O)CCC3=O)cc2n1 [Example 7-22, 7-[(2,5-dioxopyrrolidin-1-yl)methyl]-5-fluoro-4-(4-fluorophenyl)quinoline-2-carboxamide]"
18,1090 nM,"CC(C)c1ncc(-c2cc(C(N)=O)nc3cc(CN4CCOC(C(F)(F)F)C4)ccc23)s1 (stereo not shown) [Example 4-75, 4-[2-(1-methylethyl)-1,3-thiazol-5-yl]-7-{[2-(trifluoromethyl)morpholin-4-yl]methyl}quinoline-2-carboxamide]"
